Assay results: patent EP0830890A1, “Surfactants for use in liquid/supercritical CO2” (AIR PRODUCTS AND CHEMICALS, INC., priority 1996, dated 1998)

Experiments:
[1] = Solubility in CO2 by cloud point determination in a variable volume view cell; settings: Surfactant Concn. in CO2 3.8330 wt%; 35°C
[2] = Water uptake by surfactant/CO2 mixture (phase behavior, cloud point); assay type: physicochemical; settings: Wt% Surfactant in CO2 0.751; 4010 psi 65°C; listed as 20
Description: Utilizing the same phase behavior appartus described in Example 1, a known amount of water was added through a sample loop to a surfactant CO2 mixture of known phase behavior (i.e. its cloud point was first determined). Comparisons were made to water solubilization by pure CO2 and compared to the pure surfactant phase behavior to study the effect the water addition had made, if any, on the measured cloud point for the system.
If the surfactant allowed for the uptake of water, the system would show a single phase at water loadings beyond that normally solubilized by CO2. A cloud point could then be measured for the system, and compared to pure water and pure surfactant phase behavior in CO2.

Ethoxylated 2,4,7,9-Tetramethyl-5-decyn-4,7-diol [AP-420]
Pressure Describing Cloud Point Determinations For Surfactant/CO2Concentrations [1]: 2350
Wt% of water uptake [2]: 0.553%
